How the values were obtained:
c-kit kinase = c-kit kinase (Homo sapiens, UniProt P10721); experiment: c-Kit biochemical assay, AlphaScreen, 10 μM ATP; settings: read-out: Biochemical activity (IC50 μM) Kit; c-kit biochemical inhibitory activity
c-kit mutant D816V = c-kit mutant D816V (Homo sapiens, UniProt P10721, D816V/DEL694-753); experiment: c-Kit mutant D816V biochemical assay, AlphaScreen; settings: read-out: Biochemical activity (IC50 μM) Kit D816V; c-kit D816V biochemical inhibitory activity

By UniProt entry, the sequences of proteins in these tests, tags left out. Where a name states a change or a piece, a line headed by the entry shows the natural chain unless it says otherwise. Chains listed by the source or under a name are the forms on record and can include a tag or linker. Residues count along the entry.
UniProt P10721, 26-976 limits assumed: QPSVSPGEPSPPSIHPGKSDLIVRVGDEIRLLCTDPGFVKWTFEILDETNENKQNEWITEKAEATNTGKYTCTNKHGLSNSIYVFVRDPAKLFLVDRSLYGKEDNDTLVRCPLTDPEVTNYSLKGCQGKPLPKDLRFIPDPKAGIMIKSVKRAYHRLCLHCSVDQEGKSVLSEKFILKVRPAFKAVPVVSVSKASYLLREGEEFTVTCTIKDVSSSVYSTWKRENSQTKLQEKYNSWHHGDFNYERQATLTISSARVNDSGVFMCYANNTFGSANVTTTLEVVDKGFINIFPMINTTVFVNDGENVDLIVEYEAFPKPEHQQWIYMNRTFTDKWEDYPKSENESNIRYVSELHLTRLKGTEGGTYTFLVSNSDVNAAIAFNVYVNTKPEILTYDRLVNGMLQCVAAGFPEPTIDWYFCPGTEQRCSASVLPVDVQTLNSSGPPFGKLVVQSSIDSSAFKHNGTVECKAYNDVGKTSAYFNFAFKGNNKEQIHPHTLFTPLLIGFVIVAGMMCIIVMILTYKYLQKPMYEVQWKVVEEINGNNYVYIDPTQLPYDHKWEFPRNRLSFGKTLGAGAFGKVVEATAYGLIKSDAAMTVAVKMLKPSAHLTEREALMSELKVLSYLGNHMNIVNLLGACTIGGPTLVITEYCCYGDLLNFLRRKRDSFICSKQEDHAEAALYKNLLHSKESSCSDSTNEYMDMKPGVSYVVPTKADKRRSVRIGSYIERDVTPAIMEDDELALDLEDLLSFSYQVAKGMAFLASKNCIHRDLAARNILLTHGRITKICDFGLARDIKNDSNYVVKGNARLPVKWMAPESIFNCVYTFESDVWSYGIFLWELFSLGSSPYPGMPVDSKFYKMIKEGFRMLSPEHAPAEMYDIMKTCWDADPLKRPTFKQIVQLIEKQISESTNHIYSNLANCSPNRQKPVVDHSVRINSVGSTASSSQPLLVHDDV
UniProt P10721, with tags, fused parts or gaps D816V/DEL694-753 limits assumed: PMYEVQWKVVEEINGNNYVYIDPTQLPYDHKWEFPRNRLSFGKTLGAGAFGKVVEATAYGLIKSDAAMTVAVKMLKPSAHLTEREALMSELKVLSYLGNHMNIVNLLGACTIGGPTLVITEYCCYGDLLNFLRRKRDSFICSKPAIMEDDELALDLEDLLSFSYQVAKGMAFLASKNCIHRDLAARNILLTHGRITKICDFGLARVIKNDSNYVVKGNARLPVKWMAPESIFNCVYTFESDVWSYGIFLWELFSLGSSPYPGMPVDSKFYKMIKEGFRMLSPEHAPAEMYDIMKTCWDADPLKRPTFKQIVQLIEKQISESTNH

Cc1ccccc1Cc1c[nH]c2ncnc(N3CCN(C(=O)NCc4ccc(F)cc4)CC3)c12
IC50 (c-kit kinase): 10 to 200 µM
IC50 (c-kit mutant D816V): 10 to 200 µM
